These results are taken from patent US9345766B2, “Combination therapies comprising anti-ERBB3 agents” (Merrimack Pharmaceuticals, Inc., priority 2012, dated 2016).

In test [1] the test system is BT474-M3 cells. The experiment in a line: Spheroid in vitro tumor model assay, heregulin-stimulated. In kind it is cell-based. The note with it: heregulin (HRG)-stimulated BT474-M3 spheroids, dose range.
Test [2] relates to BT474-M3 cells. The experiment in a line: Spheroid in vitro tumor model assay, dual ligand (estrogen and heregulin)-stimulated. The note with it: dual ligand (estrogen and heregulin) stimulated spheroids, dose range.
Test [3] relates to BT474-M3 cells. The test can be described thus: Spheroid in vitro tumor model assay, estrogen-stimulated. The test is classed as cell-based. The note with it: estrogen-stimulated BT474-M3 spheroids, dose range.
For a further test, the system named is phospho-ErbB3 (pErbB3). The experiment in a line: Cell signaling assay, pErbB3 ELISA in heregulin-stimulated BT474-M3 cells. In kind it is cell-based. Particulars: 5 nM heregulin for 10 min vs unstimulated (basal). How it is done: Cell lysates are probed for phospho-ErbB3 (pErbB3), and phospho-AKT (pAKT) by ELISA as described previously (Schoeberl et al, 2009) Inhibitor IC50 values are calculated by fitting dose-response data to a 4-parameter sigmoidal curve (GraphPad Prism®, GraphPad Software, Inc., La Jolla, Calif.).
Model-generated dose-response curves overlay the experimental data (FIG. 7a). […] Untreated and heregulin-stimulated cells were probed for pErbB3 and pAKT and the IC50 was calculated (FIG. 7b).
Amounts of pAKT and pErbB3 were measured by ELISA essentially as described.

Regarding `C[C@]12CC[C@@H]3c4ccc(O)cc4C[C@@H](CCCCCCCCC[S+]([O-])CCCC(F)(F)C(F)(F)F)[C@H]3[C@@H]1CC[C@@H]2O` (some centres unmarked) [fulvestrant], the spheroid growth result is “did not inhibit heregulin stimulated spheroid growth” in the test with BT474-M3 cells [1], “inhibited spheroid growth” in the test with BT474-M3 cells [2] and “showed inhibitory effects on spheroid growth” with BT474-M3 cells [3].

`CS(=O)(=O)CCNCc1ccc(-c2ccc3ncnc(Nc4ccc(OCc5cccc(F)c5)c(Cl)c4)c3c2)o1` [lapatinib]: the “inhibition of heregulin-activated signaling (pErbB3 and pAKT)” value with phospho-ErbB3 (pErbB3) is “not an effective inhibitor of heregulin-activated signaling”. As to “MM-111: bispecific anti-ErbB2/anti-ErbB3 antibody, scFv HSA conjugate, amino acid sequence SEQ ID NO:1”, in the test with BT474-M3 cells [3], the spheroid growth result is “showed inhibitory effects on spheroid growth”.
